{"source": "patent US20100254928A1", "about": "“NOVEL COMPOSITION CONTAINING OZONIZED SURFACTANT” (priority 2007, published 2010)", "test": "Temporal change in oxidizing property (iodine titration method)", "type": "physicochemical", "conditions": "1% aqueous solution, 25° C.", "text": "After deaerating the obtained aqueous ozonized surfactant solution to remove dissolved ozone gas by helium purging, the oxidizing property of the aqueous ozonized surfactant solution can be determined by the iodine titration method (see Non Patent Literature 1). Whether or not the aqueous ozonized surfactant solution maintains a function as a surfactant can be evaluated by checking whether or not frothing, which is a characteristic of surfactants, occurs when the solution is agitated or vibrated.\nMeanwhile, oxygen was supplied from an oxygen cylinder into an ozonizer (ozonizer GR-RB made by Sumitomo Precision Products Co., Ltd.) at an oxygen flow rate of 0.3 L/min to ozonize the oxygen to produce ozone gas. […] After deaerating the aqueous solution that had undergone about 30-minute ozone treatment to remove dissolved ozone gas by helium purging, oxidizing property of the aqueous solution was determined by the iodine titration method. […] Further, a temporal change in the oxidizing property of the aqueous solution was determined by the iodine titration method at 25° C. for 20 days. As a result, the percentage of oxidizing property measured after 20 days to that measured just after preparation was 109%. […]", "data": [{"substance": "Ozonized decaglycerin monooleate [Example 6]", "values": [{"measurement": "percentage of oxidizing property measured after 180 days to that measured just after preparation", "result": 100, "unit": "%"}]}]}
